Antibody variant affinities, Ab-14 heavy chain, assay 1

Target: peptide PDVDLGDISGINAS, taken from heptad repeat 2 (HR2) of SARS-CoV-2 spike.

Ab-14 is the parent antibody, in scFv form: VH, then a 15-residue (Gly4Ser)3 linker, then VL. The light chain is unchanged in all variants.
VH: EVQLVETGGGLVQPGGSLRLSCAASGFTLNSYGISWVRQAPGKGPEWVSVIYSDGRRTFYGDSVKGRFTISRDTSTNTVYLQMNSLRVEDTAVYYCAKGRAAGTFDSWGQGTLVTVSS
VL: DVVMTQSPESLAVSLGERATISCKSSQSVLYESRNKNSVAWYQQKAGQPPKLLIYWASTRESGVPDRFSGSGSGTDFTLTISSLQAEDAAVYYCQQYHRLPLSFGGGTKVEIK

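The starting antibody came from a phage panning campaign against this peptide. The library (AAYL49) carries one to three amino acid substitutions per variant, with no insertions or deletions. In AlphaSeq, yeast of one mating type display the scFv and yeast of the other type display the target. Binding brings cells together so that they mate, and sequencing counts the barcode pairs among the diploids. Each replicate has its own calibration line, from reference interactions of the BCL2 family. There are three technical replicates.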

Each variant is given by its three heavy chain CDRs, as the data file delimits them; those of the parent are GFTLNSYGIS, VIYSDGRRTFYGDSVK, GRAAGTFDS. Numbers give log10(Kd / nM), so 0 is 1 nM and 3 is 1 µM. Smaller is tighter. A mean of the replicates is given; it leaves out those without a signal. Where no diploid with the target was found in any replicate, the entry reads "no signal": below detection, most likely a poor binder, though not proof of it. Three control strains display no target. For library AAYL49, 15% of the pairings with them gave a signal, with a median of 4.06 and one signal in twenty below 2.83, so weak values seen in few replicates may be background. For each scFv, signals with the empty controls are counted beside the result.

Variant GFTLNSYGIS, VIYSDGRRTFYGDSVK, GIAAGSIDS showed no signal (0 of 3 replicates; controls 0 of 9).
Variant GFTLNSYGIS, LIYSDGRRTFYPDSVK, GRAAGTFGS showed 4.60 (3 of 3 replicates; controls 8 of 9).
Variant GFTLNSYGIS, NYYSDGRRHFYGDSVK, GRAAGTFDS showed no signal (0 of 3 replicates; controls 0 of 9).
Variant GFTSNSYGIS, VIYSDGRRTRYGDSVK, GRAAETFDS showed 4.89 (2 of 3 replicates; controls 3 of 9).
Variant GFTLNSTGIS, VIPSDGRRTFYGDSVK, GRSAGTFDS showed no signal (0 of 3 replicates; controls 0 of 9).
Variant GFMLNSYGIS, VIYSDGRRTFYGDDVK, GRPAGTFDS showed 4.98 (3 of 3 replicates; controls 4 of 9).
Variant GFTLNSYQLS, VIYSDGRRTAYGDSVK, GRAAGTFDS showed no signal (0 of 3 replicates; controls 0 of 9).
Variant GFILNSYGIS, VIYSDGRRTFYGDSVK, WIAAGTFDS showed 2.46 (3 of 3 replicates; controls 0 of 9).
Variant GFTLNSYGIS, VIYSDGRRQFYGDYVK, GRAAGTYDS showed 3.64 (1 of 3 replicates; controls 0 of 9).
Variant GFTLNSYGIS, VIYSGGSRTFYGDSVK, GRAAGTFDS showed no signal (0 of 3 replicates; controls 0 of 9).
Variant GFTLNSYFIS, VIMSDGRRTFYGDSVK, GRAAGTFDS showed no signal (0 of 3 replicates; controls 3 of 9).
Variant GSTLNSYGIS, VIDSDGRRTFYGDSVK, GRAARTFDS showed 4.38 (3 of 3 replicates; controls 3 of 9).
Variant GVTLESYGIS, VINSDGRRTFYGDSVK, GRAAGTFDS showed no signal (0 of 3 replicates; controls 0 of 9).
Variant GFTLNSYGIS, VIYSDGRRTFYGDSVK, GRAAYFFDS showed 5.58 (1 of 3 replicates; controls 2 of 9).
Variant GFTLNSHGIS, VIYSDGRRKFYGDSVK, GRAAGTFSS showed 4.98 (1 of 3 replicates; controls 3 of 9).
Variant GFTVNSYGIS, VIYSIGRRTFYGDSAK, GRAAGTFDS showed no signal (0 of 3 replicates; controls 0 of 9).
Variant GFTLNSYGIL, VIYSDGRVTFYGDSVK, GRAAGTFDR showed 5.95 (1 of 3 replicates; controls 2 of 9).
Variant GFTLNAYFIS, VIYSDGRRTFYGDSVK, GRAAGTFDF showed 4.82 (2 of 3 replicates; controls 4 of 9).
Variant GPTLNSYGIS, VIYSDGRRTFYYDSVT, GRAAGTFDS showed no signal (0 of 3 replicates; controls 0 of 9).
Variant GFTANSYGIS, VIYSLGRRSFYGDSVK, GRAAGTFDS showed 4.64 (3 of 3 replicates; controls 8 of 9).
Variant GFTLNSYGIS, VIYSDGRRTFDGDRVY, GRAAGTFDS showed 4.25 (1 of 3 replicates; controls 2 of 9).
Variant KFTLNSYGIS, VIYSDGRRAFYGDSVK, GRAAGKFDS showed no signal (0 of 3 replicates; controls 1 of 9).
Variant GFTLNSYGIS, VIYSDGFRTFIGDSVK, GRAAGTFDS showed no signal (0 of 3 replicates; controls 3 of 9).
Variant DFTLNSVGIS, VIYSDGRRTFYGDSVK, GRRAGTFDS showed 4.12 (1 of 3 replicates; controls 0 of 9).
Variant KFTLPSYGIS, VIYSDGVRTFYGDSVK, GRAAGTFDS showed 3.64 (2 of 3 replicates; controls 3 of 9).
Variant GFTLNSMGIS, VIYSDGRRTFYGDSPK, GRAAGTFMS showed 3.52 (1 of 3 replicates; controls 2 of 9).
Variant GFTLNSYGIS, AHYSDGRRTFYGDSVK, GDAAGTFDS showed no signal (0 of 3 replicates; controls 0 of 9).
Variant GFQLNSYGIS, VIYSDGRRTFYGHSVK, WRAAGTFDS showed 4.47 (3 of 3 replicates; controls 6 of 9).
Variant GFTLNSYGIS, VIYSDGRRTCYGDKVK, GRAAGCFDS showed no signal (0 of 3 replicates; controls 0 of 9).
Variant VFFLNSYGIS, VIYSDGRRTFYGDSVK, GRAAGTFDQ showed 5.01 (1 of 3 replicates; controls 1 of 9).
Variant GFTLNSYGIS, VIYWDGRRTFYGDSVK, GRAAGMFDS showed no signal (0 of 3 replicates; controls 1 of 9).
Variant GFTLNSHGIS, VIYSDGRRTFYGDSVK, KWAAGTFDS showed no signal (0 of 3 replicates; controls 1 of 9).
Variant GFTLNSYRIS, VIYSDGRRTFYGDSVK, GRAAGTFTS showed no signal (0 of 3 replicates; controls 2 of 9).
Variant GFTLPSYGIS, MIYSDGRYTFYGDSVK, GRAAGTFDS showed 5.49 (1 of 3 replicates; controls 3 of 9).
Variant GFTLNSYGIS, VIYSDGRDTFYGKSVK, GRAAGTFDS showed no signal (0 of 3 replicates; controls 1 of 9).
Variant GFTLNSEGIS, VIYSDHRRTFYGDSVK, GRAIGTFDS showed no signal (0 of 3 replicates; controls 1 of 9).
Variant GFTLNSYGIS, VIYSDGRRTIYGDSVK, GRASGHFDS showed no signal (0 of 3 replicates; controls 0 of 9).
Variant GFTLNSYGII, VIYSDGRRTFYGQYVK, GRAAGTFDS showed no signal (0 of 3 replicates; controls 1 of 9).
Variant NFTLNSYGIG, VIYSDGRRTFYGCSVK, GRAAGTFDS showed no signal (0 of 3 replicates; controls 3 of 9).
Variant GITLNSYGIS, VIYSDGRRTFYGDSHK, GRAAGTIDS showed 4.21 (2 of 3 replicates; controls 4 of 9).
Variant GFTKESYGIS, LIYSDGRRTFYGDSVK, GRAAGTFDS showed no signal (0 of 3 replicates; controls 1 of 9).
Variant GFTLNSPGIS, VIYSEGRRTFYGDSVK, GRAAGYFDS showed no signal (0 of 3 replicates; controls 0 of 9).
Variant GFTLNAYGIH, VIYSDGRRTFYGDSVK, GRAAGTFDI showed 1.29 (3 of 3 replicates; controls 2 of 9).
Variant PFTLNSYGIS, VIYSDGRRTFYGDSVK, PRAAGTFDS showed no signal (0 of 3 replicates; controls 0 of 9).
Variant SFTLNSYGIS, VIASDGRRTFYGDSVK, GDAAGTFDS showed 2.09 (1 of 3 replicates; controls 0 of 9).
Variant GFTLNGYGIS, VIYSDGRRCFYGDSVK, GRAAGTFES showed 2.70 (3 of 3 replicates; controls 3 of 9).
Variant GVTLNSYGIS, VIYSDGRRTFYNYSVK, GRAAGTFDS showed no signal (0 of 3 replicates; controls 0 of 9).
Variant GPTLNSYGIS, TPYSDGRRTFYGDSVK, GRAAGTFDS showed no signal (0 of 3 replicates; controls 6 of 9).
Variant GFTLNSYGVS, VIYSDGRRTFYGDSVK, GDAAGTLDS showed no signal (0 of 3 replicates; controls 1 of 9).
Variant GFTLNSYGWS, GIYSDGRRTFYGDSVK, GIAAGTFDS showed 4.34 (1 of 3 replicates; controls 0 of 9).

Repeated from above, the 3 best binders with a signal in all replicates:

CDR-H1,CDR-H2,CDR-H3,"mean, log10 nM",detected,signal with controls
GFTLNAYGIH,VIYSDGRRTFYGDSVK,GRAAGTFDI,1.29,3 of 3,2 of 9
GFILNSYGIS,VIYSDGRRTFYGDSVK,WIAAGTFDS,2.46,3 of 3,0 of 9
GFTLNGYGIS,VIYSDGRRCFYGDSVK,GRAAGTFES,2.70,3 of 3,3 of 9

Data: MIT Lincoln Laboratory AlphaSeq set, Engelhart et al. 2022, doi:10.1038/s41597-022-01779-4, as distributed in FLAb.